# Laboratory results: US20250009694A1, “METHODS AND PHARMACEUTICAL COMPOSITIONS FOR REPAIRING INTESTINAL MUCOSAL” (INSTITUT NATIONAL DE LA SANTÉ ET DE LA RECHERCHE MÉDICALE, priority 2021, published 2025)
# What was measured:
# [1] = system: colon organoids from WT mice
# DSS-colitis in WT mice = test: DSS-induced acute colitis in WT C57BL/6 mice after pre-treatment; details: mouse, in vivo
smiles,measurement,setting,value
CC(C)(CO)[C@@H](O)C(=O)NCCC(=O)NCCSSCCNC(=O)CCNC(=O)[C@H](O)C(C)(C)CO [pantethine],Muc2 and Ang4 expression,VIVA colon organoids,stimulating effect
same,cell death following TNF exposure (% zombie red positive cells),VIVA colon organoids,almost completely abolished
same,cell death following TNF exposure (% zombie red positive cells),[1],significantly reduced the mortality rate
same,expression of epithelial genes Muc2 and antimicrobial peptide Ang4,[1],further enhanced
same,tolerance to DSS-colitis,DSS-colitis in WT mice,enhanced tolerance to DSS-colitis
same,protection against colitis,DSS-colitis in WT mice; po,same protective result
